Experiments:
[1] = molecular target: T1, human C3d (human, UniProt P01024, in part); experiment: ELISA, human C3d coated on plate
T1 construct: domain: C3d; also called C3d antigen

[2] = molecular target: T1, human C3d; experiment: SPR (Biacore 3000), human C3d amine-coupled to CM5 chip, construct as analyte

Binder | EC50 [1] [nM] | Kd [2] [nM]
Exemplary Fusion Construct 97 (other) heavy: QVQLVQSGAEVKKPGASVKVSCKASGYTFTNYYINWVRQAPGQGLEWMGVINPYSGGTSYNQKFKGRVTMTVDTSTSTAYMELSSLRSEDTAVYFCSSPYWGQGTLVTVSSASTKGPSVFPLAPCSRSTSESTAALGCLVKDYFPEPVTVSWNSGALTSGVHTFPAVLQSSGLYSLSSVVTVPSSSLGTKTYTCNVDHKPSNTKVDKRVESKYGPPCPPCPAPEFEGGPSVFLFPPKPKDTLMISRTPEVTCVVVDVSQEDPEVQFNWYVDGVEVHNAKTKPREEQFNSTYRVVSVLTVLHQDWLNGKEYKCKVSNKGLPSSIEKTISKAKGQPREPQVYTLPPSQEEMTKNQVSLTCLVKGFYPSDIAVEWESNGQPENNYKTTPPVLDSDGSFFLYSRLTVDKSRWQEGNVFSCSVLHEALHSHYTQKSLSLSLGGGGGSGGGGSEDCNELPPRRNTEILTGSWSDQTYPEGTQAIYKCRPGYRSLGNVIMVCRKGEWVALNPLRKCQKRPCGHPGDTPFGTFTLTGGNVFEYGVKAVYTCNEGYQLLGEINYRECDTDGWTNDIPICEVVKCLPVTAPENGKIVSSAMEPDREYHFGQAVRFVCNSGYKIEGDEEMHCSDDGFWSKEKPKCVEISCKSPDVINGSPISQKIIYKENERFQYKCNMGYEYSERGDAVCTESGWRPLPSCEEKSCDNPYIPNGDYSPLRIKHRTGDEITYQCRNGFYPATRGNTAKCTSTGWIPAPRCTLK light: DVVMTQSPLSLPVTLGQPASISCKSSQSLLDSDGKTYLNWFQQRPGQSPRRLIYLVSKLDSGVPDRFSGSGSGTDFTLKISRVEAEDVGVYYCWQGTHFPRTFGGGTKVEIKRTVAAPSVFIFPPSDEQLKSGTASVVCLLNNFYPREAKVQWKVDNALQSGNSQESVTEQDSKDSTYSLSSTLTLSKADYEKHKVYACEVTHQGLSSPVTKSFNRGEC | 0.074 | 11.9
Exemplary Fusion Construct 135 (other) heavy: QHQLVQSGAEVKKPGASVKVSCKASGYTFHNYYINWVRQAPGQGLEWMGVINPYSGGTSYNQKFKGRVTMTVDHSTSTAYMELSSLRSEDTAVYFCSSPYWGQGTLVTVSSASTKGPSVFPLAPCSRSTSESTAALGCLVKDYFPEPVTVSWNSGALTSGVHTFPAVLQSSGLYSLSSVVTVPSSSLGTKTYTCNVDHKPSNTKVDKRVESKYGPPCPPCPAPEFEGGPSVFLFPPKPKDTLMISRTPEVTCVVVDVSQEDPEVQFNWYVDGVEVHNAKTKPREEQFNSTYRVVSVLTVLHQDWLNGKEYKCKVSNKGLPSSIEKTISKAKGQPREPQVYTLPPSQEEMTKNQVSLTCLVKGFYPSDIAVEWESNGQPENNYKTTPPVLDSDGSFFLYSRLTVDKSRWQEGNVFSCSVLHEALHSHYTQKSLSLSLGGGGGSGGGGSEDCNELPPRRNTEILTGSWSDQTYPEGTQAIYKCRPGYRSLGNVIMVCRKGEWVALNPLRKCQKRPCGHPGDTPFGTFTLTGGNVFEYGVKAVYTCNEGYQLLGEINYRECDTDGWTNDIPICEVVKCLPVTAPENGKIVSSAMEPDREYHFGQAVRFVCNSGYKIEGDEEMHCSDDGFWSKEKPKCVEISCKSPDVINGSPISQKIIYKENERFQYKCNMGYEYSERGDAVCTESGWRPLPSCEEKSCDNPYIPNGDYSPLRIKHRTGDEITYQCRNGFYPATRGNTAKCTSTGWIPAPRCTLK light: DVVMTQSPLSLPVTLGQPASISCKSSQSLLDSDGKTYLNWFQQRPGQSPRRLIYLVSKLDSGVPDRFSGSGSGTDFTLKISRVEAEDVGVYYCWQGTHFPRTFGGGTKVEIKRTVAAPSVFIFPPSDEQLKSGTASVVCLLNNFYPREAKVQWKVDNALQSGNSQESVTEQDSKDSTYSLSSTLTLSKADYEKHKVYACEVTHQGLSSPVTKSFNRGEC | 0.06 | 38.9
Exemplary Fusion Construct 146 (other, Order heavy chain, linker, modulator follows claim 321 (2)) heavy: QVQLVQSGAEVKKPGASVKVSCKASGYTFTNYYINWVRQAPGQGLEWMGVINPYSGGTSYNQKFKGRVTMTVDTSTSTAYMELSSLRSEDTAVYFCSSPYWGQGTLVTVSSASTKGPSVFPLAPCSRSTSESTAALGCLVKDYFPEPVTVSWNSGALTSGVHTFPAVLQSSGLYSLSSVVTVPSSSLGTKTYTCNVDHKPSNTKVDKRVESKYGPPCPPCPAPEFEGGPSVFLFPPKPKDTLMISRTPEVTCVVVDVSQEDPEVQFNWYVDGVEVHNAKTKPREEQFNSTYRVVSVLTVLHQDWLNGKEYKCKVSNKGLPSSIEKTISKAKGQPREPQVYTLPPSQEEMTKNQVSLTCLVKGFYPSDIAVEWESNGQPENNYKTTPPVLDSDGSFFLYSRLTVDKSRWQEGNVFSCSVMHEALHNHYTQKSLSLSLGGGGGSGGGGSEDCNELPPRRNTEILTGSWSDQTYPEGTQAIYKCRPGYRSLGNVIMVCRKGEWVALNPLRKCQKRPCGHPGDTPFGTFTLTGGNVFEYGVKAVYTCNEGYQLLGEINYRECDTDGWTNDIPICEVVKCLPVTAPENGKIVSSAMEPDREYHFGQAVRFVCNSGYKIEGDEEMHCSDDGFWSKEKPKCVEISCKSPDVINGSPISQKIIYKENERFQYKCNMGYEYSERGDAVCTESGWRPLPSCEEKSCDNPYIPNGDYSPLRIKHRTGDEITYQCRNGFYPATRGNTAKCTSTGWIPAPRCTLK light: DVVMTQSPLSLPVTLGQPASISCKSSQSLLDSDGKTYLNWFQQRPGQSPRRLIYLVSKLDSGVPDRFSGSGSGTDFTLKISRVEAEDVGVYYCWQGTHFPRTFGGGTKVEIKRTVAAPSVFIFPPSDEQLKSGTASVVCLLNNFYPREAKVQWKVDNALQSGNSQESVTEQDSKDSTYSLSSTLTLSKADYEKHKVYACEVTHQGLSSPVTKSFNRGEC | 0.061 | –

Source: US20240301043A1 (Q32 BIO, published 2024)
